## Yeast mating assay B: variants of the scFv Ab-14

Values reported by Li et al. 2023, doi:10.1038/s41467-023-39022-2 (FLAb copy).

Binding partner: SARS-CoV-2 spike HR2 peptide, sequence PDVDLGDISGINAS.

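The starting antibody came from a phage panning campaign against this peptide. This is the validation round: designs drawn from the data on random variants, tested in the same kind of assay. Their group label is 14L_En_Gen (En: ensemble of fine-tuned language models; Gen: genetic algorithm). The scFvs were displayed on barcoded MATa yeast, the peptide on MATalpha yeast. After mating in shaken culture at 30 °C for 16 h, diploids were selected and their barcode pairs sequenced. A regression on co-assayed BCL2-family reference pairs converts the normalised counts of each replicate to an apparent Kd. There are six technical replicates.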

Parent scFv Ab-14: VH joined to VL by the linker GGGGSGGGGSGGGGS. Changes lie in the light chain CDRs alone.
VH: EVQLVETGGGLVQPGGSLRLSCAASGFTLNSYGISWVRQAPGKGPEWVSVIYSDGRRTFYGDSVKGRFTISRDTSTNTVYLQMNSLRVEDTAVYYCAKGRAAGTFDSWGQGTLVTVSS
VL: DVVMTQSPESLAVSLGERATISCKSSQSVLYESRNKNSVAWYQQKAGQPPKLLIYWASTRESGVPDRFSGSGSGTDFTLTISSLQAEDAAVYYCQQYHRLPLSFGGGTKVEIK

Variants are written as CDR1, CDR2 and CDR3 of the light chain (limits as in the source). Parent: KSSQSVLYESRNKNSVA, WASTRES, QQYHRLPLS. The read-out is the apparent dissociation constant on a log10 scale (nM): the lower, the stronger. "n.d." marks a missing value. The strain was present, yet no cells mated with the target were sequenced in that replicate, which points to weak or no binding. Values of this round are not directly comparable with the first-round values of the same sequences. Three control strains display no target. For all light chain designs, 4% of the pairings with them gave a signal, with a median of 2.64 and one signal in twenty below 1.59, so weak values seen in few replicates may be background. Also given: how often the same scFv was detected with the empty control strains, with their mean in brackets. The authors averaged sequences with at least three values out of six and counted those with two or fewer as poor binders. The parent sequence was in this pool as ten entries: three were never detected, three once, and four in most replicates, with averages from 0.34 to 2.37.

| CDR-L1 | CDR-L2 | CDR-L3 | replicates, log10 nM | signal with controls |
|---|---|---|---|---|
| HMSALTLQGMRLRNSVA | QMTTREN | QQYDRLPLS | 0.74 / 0.65 / 1.12 / 1.01 / 1.20 / 1.00 | 0 of 18 |
| IVSQLMLWGMHLKNSIA | EAQTRLN | QQYERLPLF | n.d. / n.d. / n.d. / n.d. / n.d. / n.d. | 0 of 18 |
| KFSQAVNSMSVSKSAVA | EMSTRPE | QQYNRLPLS | n.d. / 1.03 / 1.05 / 1.17 / 0.87 / 1.22 | 0 of 18 |
| KISQMTRVGSTHGNSIA | EEATRAK | QQYHRLPLF | n.d. / n.d. / 1.92 / n.d. / n.d. / n.d. | 0 of 18 |
| KITGTMRFEQKASNNIA | EVTTRSK | QQYYRLPLS | 0.31 / 0.31 / 0.33 / 0.54 / 0.36 / 0.26 | 1 of 18 (3.47) |
| TISGVMMQMSHSKNNVA | EVSMRLD | QQYFRLPLE | 1.50 / 1.22 / 2.15 / 1.15 / 1.15 / 1.67 | 0 of 18 |
| KLTSVTGTEKVRGNNVA | EMETREQ | QQYNRLPLS | 0.65 / 0.59 / 0.47 / 0.56 / 0.59 / 0.96 | 0 of 18 |
| KLGATMNTEMTKRNNVA | DLVEREN | QQYFRLPLS | 0.40 / -0.23 / -0.14 / -0.18 / -0.10 / -0.13 | 0 of 18 |
| MFSQMLGLGMKVQNSVA | QASTRFN | QQYHRLPLM | n.d. / 1.69 / 1.65 / n.d. / n.d. / 1.28 | 0 of 18 |
| KLSSVTGHMSMAKNNVA | EMETREK | QQYNRLPLA | 0.17 / -0.08 / -0.03 / -0.04 / -0.08 / 0.10 | 2 of 18 (2.90) |
| TISQVMNTMTRHGNNVA | DLQEREN | QQYFRLPLS | 0.29 / -0.12 / 0.45 / 0.33 / 0.76 / 1.00 | 0 of 18 |
| KISGMSNHQSSVANNVA | ENVTRVN | QQYFRLPLA | 1.84 / 1.54 / n.d. / 1.35 / 2.51 / 1.69 | 0 of 18 |
| KFSQMVNSMSVSHSAVA | EMSTRED | QQYNRLPLA | 0.18 / -0.06 / 0.33 / 0.29 / 0.37 / 0.52 | 1 of 18 (2.38) |
| TISMVMNHMTKNKMNVA | NMDMRED | QQYDRLPLS | 0.56 / 0.17 / 0.17 / 0.25 / 0.24 / 0.41 | 2 of 18 (2.90) |
| QLSMITGHVSMTKNNVA | EMETREE | QQYDRLPLS | 0.71 / 0.71 / 0.42 / 1.03 / 0.52 / 0.72 | 1 of 18 (2.73) |
| MLSQMWAIGMKVSNSVA | QANMRFN | QQYDRLPLM | n.d. / n.d. / n.d. / 1.31 / 0.93 / 1.66 | 0 of 18 |
| SISMLLNFESKRGNNVA | QMETRVN | QQYDRLPLS | 0.57 / 0.98 / 0.17 / 0.23 / 0.49 / 0.95 | 0 of 18 |
| MISQLYNMGTFAINSVA | QASIRNL | QQYDRLPLM | 2.44 / 2.26 / n.d. / n.d. / n.d. / 2.99 | 0 of 18 |
| KLRSVTGTEKVKGDNVA | EMETRER | QQYNRLPLS | 0.35 / -0.09 / 0.19 / -0.06 / -0.14 / 0.09 | 0 of 18 |
| HMSMLTLQGQRHRNAVA | QMTTREN | QQYDRLPLI | 1.56 / 2.26 / 1.54 / 1.92 / 2.71 / 2.26 | 1 of 18 (2.82) |
| QIYQAMHTLSQMKDNVA | DVNERGS | QQYFRLPLS | 0.23 / 0.26 / 0.17 / 0.11 / 0.09 / 0.19 | 0 of 18 |
| SISGFMKSLAAHYNSVA | DMTNRED | QQYDRLPLS | 1.57 / 0.99 / 1.19 / 1.10 / 0.91 / 1.21 | 2 of 18 (3.46) |
| MISQLYNMGQFAINSVA | QASLRCN | QQYDRLPLM | 2.03 / 2.49 / 3.15 / n.d. / n.d. / n.d. | 0 of 18 |
| SLGLSTMLEEYVRNSVA | NNSTREE | QQYDRLPLS | n.d. / n.d. / n.d. / n.d. / n.d. / n.d. | 0 of 18 |
| MVTQMAMTGMMNKRSVA | NAETREY | QQYHRLPLF | 0.61 / 1.20 / 0.86 / 0.64 / 0.96 / 1.19 | 0 of 18 |
| MMSQVHALGQRHRNNVA | QTSTREP | QQYDRLPLI | 1.15 / 2.21 / 2.18 / 1.69 / 3.24 / 2.06 | 0 of 18 |
| MLSQMWAVGSKVSNSVA | QASMRFN | QQYDRLPLI | 0.54 / 0.69 / 2.12 / 0.59 / 1.67 / 1.00 | 0 of 18 |
| HMSMITLMGSKNRNSVA | QMTTREN | QQYDRLPLS | n.d. / 0.34 / -0.30 / 0.34 / 0.17 / -0.11 | 0 of 18 |
| QIYQAMHTLSQQKDNVA | DVNERGR | QQYFRLPLS | 0.45 / 0.07 / -0.11 / -0.02 / 0.05 / 0.11 | 0 of 18 |
| TIQQMMSLFSQTINNVA | EVSTREK | QQYDRLPLV | 1.26 / 1.83 / 1.10 / n.d. / 2.37 / n.d. | 0 of 18 |
| SISGFMKSLSAHINNVA | DMTNRED | QQYDKLPLS | 0.67 / 0.22 / 0.22 / 0.32 / 0.31 / 0.15 | 0 of 18 |
| TISQMTSAFSMSINNVA | EVSTREE | QQYDRLPLA | n.d. / n.d. / n.d. / n.d. / n.d. / n.d. | 0 of 18 |
| KITATMRFEQKQSNNIA | EVTTRSK | QQYYRLPLS | 0.86 / 0.41 / 0.12 / 0.34 / 0.34 / 0.60 | 0 of 18 |
| KIGDTLNQLTHKKNNVA | DLVTREN | QQYFRLPLS | -0.19 / 0.05 / 0.07 / 0.09 / -0.32 / -0.10 | 2 of 18 (2.23) |
| MISQIYNMGSFAINSVA | QASLRNQ | QQYDRLPLM | 1.42 / 0.57 / 1.12 / 1.44 / 0.69 / 0.96 | 0 of 18 |
| MISQVMNTLTRNTNNVA | DLTNRED | QQYFRLPLS | 1.09 / 0.69 / 0.45 / 0.26 / 0.30 / 0.88 | 0 of 18 |
| KITATMRFEQKISNNIA | EVTQRSK | QQYYRLPLS | 1.30 / 1.33 / 1.38 / 1.11 / 1.17 / 1.53 | 3 of 18 (3.10) |
| TIGQTLMAGIRNRSNVA | EVSQRLN | QQYDRLPLA | 1.35 / 1.31 / 1.07 / 1.47 / 1.98 / 1.96 | 1 of 18 (3.05) |
| KVSSFMRGLMMRKDSIA | DNETRNH | QQYDRLPLS | 1.96 / 2.08 / 1.32 / 1.48 / 1.31 / 1.58 | 2 of 18 (3.26) |
| TIGGTLMYGYRNRSNVA | EVSERLN | QQYDRLPLF | n.d. / 2.27 / n.d. / 4.18 / 3.21 / 3.42 | 1 of 18 (2.07) |
| TISQMTSLFSQSIQNVA | EVSTREP | QQYDRLPLA | 0.52 / 0.18 / 0.16 / 0.29 / 0.05 / 0.60 | 1 of 18 (1.94) |
| TIGGTLMYGVRNRSNVA | EVSERLN | QQYDRLPLM | 1.66 / 1.51 / 1.40 / 1.60 / 1.55 / 1.50 | 2 of 18 (2.80) |
| NISHFMDVTAKNINNVA | EMTTREM | QQYHHLPLS | 0.11 / 0.19 / 0.35 / -0.01 / -0.05 / 0.11 | 0 of 18 |
| MLSEVLHMLGVMKNSIA | DLVLRAN | QQYHRLPLA | n.d. / n.d. / n.d. / n.d. / n.d. / n.d. | 0 of 18 |
| MISQVMNSLTHTGNNVA | DLQERED | QQYFRLPLS | 0.43 / 1.27 / 0.78 / 0.64 / 0.48 / 0.90 | 0 of 18 |
| MVTQMAMTGMMSKRSVA | NAETREK | QQYHRLPLI | 1.17 / 0.64 / 1.24 / 1.13 / 0.36 / 1.51 | 0 of 18 |
| QIYQAMHTLSQMKDNVA | DVNERGN | QQYFRLPLS | 0.43 / 0.50 / 0.32 / 0.01 / 0.44 / 0.27 | 2 of 18 (2.76) |
| IVSQLMLWGYHAKNSIA | EAETRLN | QQYERLPLF | n.d. / n.d. / n.d. / n.d. / n.d. / n.d. | 0 of 18 |
| QLGMHLKELSKVTNNVA | EMTTRLN | QQYFRLPLA | 0.26 / 0.29 / 0.41 / 0.08 / 0.12 / 0.32 | 2 of 18 (2.18) |
| MISQLYNMGQFAINSVA | QANERCN | QQYDRLPLI | n.d. / 1.30 / 1.44 / 1.94 / 1.98 / 3.07 | 0 of 18 |
| MMSQVTGQGMRHRNNVA | QTETREP | QQYDRLPLI | 1.90 / 1.69 / 2.09 / 0.89 / 1.19 / 1.36 | 1 of 18 (1.27) |
| IIDQIMYHGNKHANSIA | QASERLN | QQYHHLPLT | 0.16 / -0.30 / 0.34 / -0.16 / 0.27 / 0.27 | 1 of 18 (2.39) |

The opening 5 entries, copied out:

CDR-L1	CDR-L2	CDR-L3	replicates, log10 nM	signal with controls
HMSALTLQGMRLRNSVA	QMTTREN	QQYDRLPLS	0.74 / 0.65 / 1.12 / 1.01 / 1.20 / 1.00	0 of 18
IVSQLMLWGMHLKNSIA	EAQTRLN	QQYERLPLF	n.d. / n.d. / n.d. / n.d. / n.d. / n.d.	0 of 18
KFSQAVNSMSVSKSAVA	EMSTRPE	QQYNRLPLS	n.d. / 1.03 / 1.05 / 1.17 / 0.87 / 1.22	0 of 18
KISQMTRVGSTHGNSIA	EEATRAK	QQYHRLPLF	n.d. / n.d. / 1.92 / n.d. / n.d. / n.d.	0 of 18
KITGTMRFEQKASNNIA	EVTTRSK	QQYYRLPLS	0.31 / 0.31 / 0.33 / 0.54 / 0.36 / 0.26	1 of 18 (3.47)